Experimental data from ChEMBL document CHEMBL1152554, “Synthesis and pharmacological evaluation of 6-naltrexamine analogs for alcohol cessation” (Bioorg Med Chem, 2009).

By UniProt entry, the sequences of proteins in these tests, tags left out. Where a name states a change or a piece, a line headed by the entry shows the natural chain unless it says otherwise.
UniProt P41146: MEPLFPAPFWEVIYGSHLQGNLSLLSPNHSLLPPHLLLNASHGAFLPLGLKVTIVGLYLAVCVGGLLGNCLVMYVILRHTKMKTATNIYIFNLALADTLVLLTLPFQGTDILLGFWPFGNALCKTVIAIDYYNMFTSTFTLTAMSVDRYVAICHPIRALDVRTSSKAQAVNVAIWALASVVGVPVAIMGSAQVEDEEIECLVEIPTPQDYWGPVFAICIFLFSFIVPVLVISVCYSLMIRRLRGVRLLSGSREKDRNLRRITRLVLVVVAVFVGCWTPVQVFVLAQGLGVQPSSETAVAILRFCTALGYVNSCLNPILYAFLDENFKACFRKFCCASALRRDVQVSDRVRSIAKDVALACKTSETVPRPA

Assays:
Rattus norvegicus [1] = assay: Inhibition of ethanol intake in Wistar rat at 12.5 ug/kg, sc by alcohol-self administration test; format: functional; parameters: scale not given: the % may be the effect or the level left
Rattus norvegicus [2] = assay: Inhibition of ethanol intake in Wistar rat at 25 ug/kg, sc by alcohol-self administration test; format: functional; parameters: scale not given: the % may be the effect or the level left
Nociceptin receptor = Nociceptin receptor (Homo sapiens, UniProt P41146); assay: Inverse agonist activity at NOP expressed in HEK293 cells assessed as inhibition of [35S]GTPgammaS binding relative to basal level; format: functional, cell-based

Row | Structure (SMILES) | Activity (Rattus norvegicus [1]) [%] | Activity (Rattus norvegicus [2]) [%] | Emax (Nociceptin receptor) [%]
1 | C=C1CC[C@@]2(O)[C@H]3Cc4ccc(O)c5c4[C@@]2(CCN3CC2CC2)[C@H]1O5 | 26.1 | 22.2 | 
2 | O=C(N[C@@H]1CC[C@@]2(O)[C@H]3Cc4ccc(O)c5c4[C@@]2(CCN3CC2CC2)[C@H]1O5)c1ccc(Cl)cc1 |  |  | 320
